In patent publication US5919901A (priority 1996, dated 1999):

Assays:
[1] = test system: Adult male Wistar rats; assay: In vivo feeding after ICV injection, rodent chow consumed in 2 hours; design: species or system rat; conditions: for Feeding (g/2 h): rats, ICV, 1-6 nmoles peptide, chow consumed in 2 hours, saline <3 g/2 hours
[2] = biological target: T1, Y5 receptor (Y861 clone) (Rattus norvegicus, UniProt Q63634); assay: [125I]PYY competition binding, clone Y861 membranes from transiently transfected COS-7 cells
T1 construct: expressed in transfected cells; host or cells: COS-7 (transient, pcDNA3 library clone)
T1 sequence (Q63634 1-445): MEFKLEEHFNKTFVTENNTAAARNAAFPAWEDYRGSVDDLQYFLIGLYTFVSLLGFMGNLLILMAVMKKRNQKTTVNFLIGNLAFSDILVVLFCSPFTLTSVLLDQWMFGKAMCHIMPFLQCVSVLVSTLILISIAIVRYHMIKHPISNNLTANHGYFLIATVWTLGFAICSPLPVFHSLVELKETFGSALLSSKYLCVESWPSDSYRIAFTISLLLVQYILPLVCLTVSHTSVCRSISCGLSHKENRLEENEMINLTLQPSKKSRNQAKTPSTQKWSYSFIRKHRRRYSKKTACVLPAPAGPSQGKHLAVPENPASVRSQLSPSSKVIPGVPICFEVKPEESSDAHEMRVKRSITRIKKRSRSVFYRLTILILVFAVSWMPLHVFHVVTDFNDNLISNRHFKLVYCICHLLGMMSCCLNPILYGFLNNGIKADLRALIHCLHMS
Method: The media was removed from each flask of transfected cells, and the cells were washed twice with 20 ml ice-cold phosphate buffered saline.
(West Haven, Conn.). All other peptides were purchased from either Peninsula (Belmont, Calif.) or Bachem (Torrance, Calif.).

Row | affinity for the Y5 receptor [2] | Compound | Feeding (g/2 h) [1] [g/2 h] | feeding response in rats ([1]; administered ICV to rats)
1 | – | CC[C@H](C)[C@H](NC(=O)[C@H](Cc1ccc(O)cc1)NC(=O)[C@H](Cc1c[nH]cn1)NC(=O)[C@H](CCCNC(=N)N)NC(=O)[C@H](CC(C)C)NC(=O)[C@H](C)NC(=O)[C@H](CO)NC(=O)[C@H](Cc1ccc(O)cc1)NC(=O)[C@H](Cc1ccc(O)cc1)NC(=O)[C@H](CCCNC(=N)N)NC(=O)[C@H](C)N)C(=O)N[C@@H](CC(N)=O)C(=O)N[C@@H](CC(C)C)C(=O)N[C@H](C(=O)N[C@H](C(=O)N[C@@H](CCCNC(=N)N)C(=O)N[C@@H](CCC(N)=O)C(=O)N[C@@H](CCCNC(=N)N)C(=O)N[C@@H](Cc1ccc(O)cc1)C(N)=O)[C@@H](C)O)[C@@H](C)CC [p(18-36)NPY, (18-36)NPY] | < 3 | –
2 | lower affinity | CC[C@H](C)[C@H](NC(=O)[C@H](Cc1ccc(O)cc1)NC(=O)[C@H](Cc1c[nH]cn1)NC(=O)[C@H](CCCNC(=N)N)NC(=O)[C@H](CC(C)C)NC(=O)[C@H](C)NC(=O)[C@H](CO)NC(=O)[C@H](Cc1ccc(O)cc1)NC(=O)[C@@H](N)Cc1ccc(O)cc1)C(=O)N[C@@H](CC(N)=O)C(=O)N[C@@H](CC(C)C)C(=O)N[C@H](C(=O)N[C@H](C(=O)N[C@@H](CCCNC(=N)N)C(=O)N[C@@H](CCC(N)=O)C(=O)N[C@@H](CCCNC(=N)N)C(=O)N[C@@H](Cc1ccc(O)cc1)C(N)=O)[C@@H](C)O)[C@@H](C)CC [r/h(20-36)NPY, (20-36)NPY] | < 3 | do not elecit feeding
